Legend:
FM3A [1] = assay: in vitro cytotoxicity against mouse mammary tumor in cell culture.; format: functional, cell-based
How it was run: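 Mouse mammary tumor FM3A cells in culture, used as a mammalian cytotoxicity control; EC50 determined.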

FM3A [2] = assay: in vitro cytotoxicity against mouse mammary tumor in cell culture

## CCCCC1(CCCC)OOCCCOO1
FM3A [1]
  EC50: 56 µM

## OOC1(OO)CCCCCCCCCCC1
FM3A [2]
  EC50: 44 µM

## C1CCCC2(CC1)OOCCCOO2
FM3A [1]
  EC50: 32 µM

## C1CCC(C2OOCCCOO2)CC1
FM3A [1]
  EC50: 19 µM
